# Data from patent US9403797B2, “5-(pyridin-2-yl-amino)-pyrazine-2-carbonitrile compounds and their therapeutic use” (Cancer Research Technology Limited, priority 2011, dated 2016).
# Protein sequences, listed by entry. Tags and fused reporters are not part of them. Lines headed by an entry give the natural chain unless they say otherwise; changes in a name come on top.
# UniProt O14757: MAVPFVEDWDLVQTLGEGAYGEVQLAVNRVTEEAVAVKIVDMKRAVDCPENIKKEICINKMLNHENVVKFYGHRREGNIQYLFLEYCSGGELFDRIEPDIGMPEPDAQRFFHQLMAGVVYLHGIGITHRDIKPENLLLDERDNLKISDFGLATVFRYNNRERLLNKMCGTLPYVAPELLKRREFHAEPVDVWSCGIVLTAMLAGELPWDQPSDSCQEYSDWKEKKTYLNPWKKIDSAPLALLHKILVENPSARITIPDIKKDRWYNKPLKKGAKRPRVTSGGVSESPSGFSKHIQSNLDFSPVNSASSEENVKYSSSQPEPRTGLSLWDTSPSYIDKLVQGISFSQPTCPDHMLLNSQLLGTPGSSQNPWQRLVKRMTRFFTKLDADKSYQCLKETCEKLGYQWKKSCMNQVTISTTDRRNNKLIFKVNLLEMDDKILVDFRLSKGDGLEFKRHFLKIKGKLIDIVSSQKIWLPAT
# Biological target: CHK1 (Homo sapiens (Human), UniProt O14757)
# Assay: Inhibitor potency vs. CHK1 (Assay 1A DELFIA or Assay 1B Caliper format)
# Format: biochemical
# Experimental: Assay 1A: Determination of Inhibitor Potency vs. CHK1 in DELFIA Assay Format
# CHK1 kinase function was measured in a DELFIA® assay in order to monitor phosphorylation of a CDC25C peptide using a specific phospho antibody. […] The reaction mixture was incubated for 30 minutes at room temperature and then stopped by the addition of buffer (125 μL) containing 40 mM EDTA, 0.05% Tween 20, 0.1% BSA in TBS (10× concentrate, Sigma). An aliquot (100 μL) of the stopped reaction mixture was transferred to a black neutravidin-coated plate (Perbio) and incubated for 1 hour on a shaker (Titertek, Flow Laboratories) at room temperature. […] The plates were washed a further four times with wash buffer before the addition of enhancement solution (100 μL/well, PerkinElmer Life Sciences).
# Assay 1B: Determination of Inhibitor Potency Vs. CHK1 in Caliper Assay Format
# CHK1 kinase activity was measured in a microfluidic assay that monitors the separation of a phosphorylated product from its substrate. […] For each test compound a 50 μM stock concentration in 100% DMSO was used. […] The plate was sealed and centrifuged (1 minutes, 1000 rpm) before incubation for one hour at room temperature. The reaction was stopped by the addition of separation buffer (90 μL). […] IC50 values were calculated in GraphPad Prism5 using a non linear regression fit of the log (inhibitor) vs. response with variable slope equation.
row,Compound,IC50
1,"CNc1cc(Nc2cnc(C#N)c(O[C@H]3CCNC3)n2)ncc1-c1cnn(C)c1 [PAPC-B-04, (S)-5-((5-(1-Methyl-1H-pyrazol-4-yl)-4-(methylamino)pyridin-2-yl)amino)-3-(pyrrolidin-3-yloxy)pyrazine-2-carbonitrile]",< 20 nM
2,"CNc1cc(Nc2cnc(C#N)c(O[C@@H]3CCNC3)n2)ncc1-c1cnn(C)c1 [PAPC-B-03, (R)-5-((5-(1-Methyl-1H-pyrazol-4-yl)-4-(methylamino)pyridin-2-yl)amino)-3-(pyrrolidin-3-yloxy)pyrazine-2-carbonitrile]",< 20 nM
